# Experimental data taken from ChEMBL document CHEMBL2218924, “A broad activity screen in support of a chemogenomic map for kinase signalling research and drug discovery” (Biochem J, 2013).
# Sequences of proteins named here, by UniProt entry; tags and fusion partners are left off. A change or cut given only in a name is not applied to a line headed by its entry.
# UniProt P07332: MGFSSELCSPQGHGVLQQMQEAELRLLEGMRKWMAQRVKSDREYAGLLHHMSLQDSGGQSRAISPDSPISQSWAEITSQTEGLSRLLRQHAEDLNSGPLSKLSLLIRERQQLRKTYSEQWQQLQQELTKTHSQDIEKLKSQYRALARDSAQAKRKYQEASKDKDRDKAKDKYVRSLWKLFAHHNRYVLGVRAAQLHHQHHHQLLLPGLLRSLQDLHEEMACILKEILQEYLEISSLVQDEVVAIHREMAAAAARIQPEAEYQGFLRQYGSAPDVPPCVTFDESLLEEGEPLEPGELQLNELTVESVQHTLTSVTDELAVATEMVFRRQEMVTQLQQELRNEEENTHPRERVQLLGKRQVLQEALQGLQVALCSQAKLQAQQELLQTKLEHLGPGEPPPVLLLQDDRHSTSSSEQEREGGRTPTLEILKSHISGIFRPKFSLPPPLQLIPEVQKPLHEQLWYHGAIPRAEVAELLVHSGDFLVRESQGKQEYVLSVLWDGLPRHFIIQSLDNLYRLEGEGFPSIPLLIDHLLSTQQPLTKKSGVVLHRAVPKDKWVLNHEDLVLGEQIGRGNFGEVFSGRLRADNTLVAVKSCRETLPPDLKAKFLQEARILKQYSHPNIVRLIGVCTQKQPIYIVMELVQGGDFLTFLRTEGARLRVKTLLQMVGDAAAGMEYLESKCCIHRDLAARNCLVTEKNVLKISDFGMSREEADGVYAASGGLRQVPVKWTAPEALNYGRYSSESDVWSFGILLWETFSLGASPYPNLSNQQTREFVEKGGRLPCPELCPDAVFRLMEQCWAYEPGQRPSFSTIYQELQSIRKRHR
# UniProt P43250, whole entry, looked up: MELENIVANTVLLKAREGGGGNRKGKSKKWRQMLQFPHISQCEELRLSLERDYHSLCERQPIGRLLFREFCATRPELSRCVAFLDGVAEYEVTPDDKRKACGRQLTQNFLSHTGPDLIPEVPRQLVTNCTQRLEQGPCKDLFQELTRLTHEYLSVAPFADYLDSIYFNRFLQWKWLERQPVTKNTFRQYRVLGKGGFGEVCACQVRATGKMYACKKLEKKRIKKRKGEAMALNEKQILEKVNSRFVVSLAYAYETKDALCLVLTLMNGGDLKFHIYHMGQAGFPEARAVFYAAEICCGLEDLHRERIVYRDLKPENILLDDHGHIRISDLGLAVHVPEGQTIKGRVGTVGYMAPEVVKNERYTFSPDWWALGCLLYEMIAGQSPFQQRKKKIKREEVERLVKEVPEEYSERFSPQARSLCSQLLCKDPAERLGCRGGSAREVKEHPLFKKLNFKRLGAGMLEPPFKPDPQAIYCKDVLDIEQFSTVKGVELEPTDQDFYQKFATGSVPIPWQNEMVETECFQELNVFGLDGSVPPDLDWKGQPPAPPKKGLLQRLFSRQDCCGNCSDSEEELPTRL
# UniProt Q8WTQ7: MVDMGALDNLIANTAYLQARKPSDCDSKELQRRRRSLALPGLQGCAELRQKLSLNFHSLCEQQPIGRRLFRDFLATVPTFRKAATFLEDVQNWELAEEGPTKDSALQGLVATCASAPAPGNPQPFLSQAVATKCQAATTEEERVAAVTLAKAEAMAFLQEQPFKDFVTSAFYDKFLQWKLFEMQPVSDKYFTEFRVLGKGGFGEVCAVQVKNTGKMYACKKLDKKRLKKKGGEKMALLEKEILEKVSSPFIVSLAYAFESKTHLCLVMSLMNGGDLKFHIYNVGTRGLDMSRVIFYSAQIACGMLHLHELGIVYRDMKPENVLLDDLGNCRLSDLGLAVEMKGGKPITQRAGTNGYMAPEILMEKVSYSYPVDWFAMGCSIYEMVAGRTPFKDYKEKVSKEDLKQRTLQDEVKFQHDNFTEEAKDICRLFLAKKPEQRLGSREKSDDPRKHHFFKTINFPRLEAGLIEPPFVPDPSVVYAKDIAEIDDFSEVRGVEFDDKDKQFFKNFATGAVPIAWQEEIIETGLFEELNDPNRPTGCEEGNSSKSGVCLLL
# UniProt P51817: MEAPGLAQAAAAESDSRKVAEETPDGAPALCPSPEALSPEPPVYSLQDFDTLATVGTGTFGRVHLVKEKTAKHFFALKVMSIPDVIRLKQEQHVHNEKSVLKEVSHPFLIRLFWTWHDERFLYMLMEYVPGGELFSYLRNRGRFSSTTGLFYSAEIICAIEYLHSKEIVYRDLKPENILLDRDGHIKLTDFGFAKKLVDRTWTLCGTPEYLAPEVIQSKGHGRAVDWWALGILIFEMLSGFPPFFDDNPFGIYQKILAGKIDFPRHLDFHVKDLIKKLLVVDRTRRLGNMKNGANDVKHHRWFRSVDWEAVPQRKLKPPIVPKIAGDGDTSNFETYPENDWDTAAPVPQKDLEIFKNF
# UniProt Q13464: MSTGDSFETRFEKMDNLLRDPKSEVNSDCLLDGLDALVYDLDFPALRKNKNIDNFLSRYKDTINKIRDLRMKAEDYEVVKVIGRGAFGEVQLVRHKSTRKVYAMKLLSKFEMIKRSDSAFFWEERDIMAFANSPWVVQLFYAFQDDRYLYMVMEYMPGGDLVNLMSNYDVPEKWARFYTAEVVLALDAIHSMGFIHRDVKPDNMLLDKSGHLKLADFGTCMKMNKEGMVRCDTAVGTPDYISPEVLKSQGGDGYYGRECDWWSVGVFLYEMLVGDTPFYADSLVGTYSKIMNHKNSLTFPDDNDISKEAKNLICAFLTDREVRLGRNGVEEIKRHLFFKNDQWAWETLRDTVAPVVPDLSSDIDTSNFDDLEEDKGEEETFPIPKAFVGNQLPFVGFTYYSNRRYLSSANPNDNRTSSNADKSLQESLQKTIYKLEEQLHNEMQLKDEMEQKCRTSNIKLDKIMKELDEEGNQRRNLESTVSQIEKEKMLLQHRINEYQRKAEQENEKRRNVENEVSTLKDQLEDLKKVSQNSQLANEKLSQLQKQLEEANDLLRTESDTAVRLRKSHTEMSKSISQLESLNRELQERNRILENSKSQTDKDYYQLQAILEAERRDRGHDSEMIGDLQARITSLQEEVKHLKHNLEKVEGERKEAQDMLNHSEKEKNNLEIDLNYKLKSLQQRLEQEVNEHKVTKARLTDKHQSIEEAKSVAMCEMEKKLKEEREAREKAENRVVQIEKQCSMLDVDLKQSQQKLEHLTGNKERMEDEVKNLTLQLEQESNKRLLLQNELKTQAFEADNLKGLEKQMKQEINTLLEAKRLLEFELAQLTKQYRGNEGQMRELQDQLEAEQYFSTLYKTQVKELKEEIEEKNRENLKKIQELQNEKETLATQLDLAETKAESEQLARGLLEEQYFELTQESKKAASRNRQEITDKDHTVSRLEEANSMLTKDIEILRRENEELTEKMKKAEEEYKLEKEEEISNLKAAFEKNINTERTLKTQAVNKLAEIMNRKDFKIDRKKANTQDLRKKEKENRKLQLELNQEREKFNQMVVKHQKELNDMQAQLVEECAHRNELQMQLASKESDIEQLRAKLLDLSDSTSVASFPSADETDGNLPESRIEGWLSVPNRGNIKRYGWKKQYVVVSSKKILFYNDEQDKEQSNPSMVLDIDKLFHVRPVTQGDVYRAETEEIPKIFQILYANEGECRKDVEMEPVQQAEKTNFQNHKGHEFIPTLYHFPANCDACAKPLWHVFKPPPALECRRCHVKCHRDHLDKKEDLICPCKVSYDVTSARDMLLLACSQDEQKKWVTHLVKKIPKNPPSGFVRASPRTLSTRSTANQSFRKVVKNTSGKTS
# UniProt O75116: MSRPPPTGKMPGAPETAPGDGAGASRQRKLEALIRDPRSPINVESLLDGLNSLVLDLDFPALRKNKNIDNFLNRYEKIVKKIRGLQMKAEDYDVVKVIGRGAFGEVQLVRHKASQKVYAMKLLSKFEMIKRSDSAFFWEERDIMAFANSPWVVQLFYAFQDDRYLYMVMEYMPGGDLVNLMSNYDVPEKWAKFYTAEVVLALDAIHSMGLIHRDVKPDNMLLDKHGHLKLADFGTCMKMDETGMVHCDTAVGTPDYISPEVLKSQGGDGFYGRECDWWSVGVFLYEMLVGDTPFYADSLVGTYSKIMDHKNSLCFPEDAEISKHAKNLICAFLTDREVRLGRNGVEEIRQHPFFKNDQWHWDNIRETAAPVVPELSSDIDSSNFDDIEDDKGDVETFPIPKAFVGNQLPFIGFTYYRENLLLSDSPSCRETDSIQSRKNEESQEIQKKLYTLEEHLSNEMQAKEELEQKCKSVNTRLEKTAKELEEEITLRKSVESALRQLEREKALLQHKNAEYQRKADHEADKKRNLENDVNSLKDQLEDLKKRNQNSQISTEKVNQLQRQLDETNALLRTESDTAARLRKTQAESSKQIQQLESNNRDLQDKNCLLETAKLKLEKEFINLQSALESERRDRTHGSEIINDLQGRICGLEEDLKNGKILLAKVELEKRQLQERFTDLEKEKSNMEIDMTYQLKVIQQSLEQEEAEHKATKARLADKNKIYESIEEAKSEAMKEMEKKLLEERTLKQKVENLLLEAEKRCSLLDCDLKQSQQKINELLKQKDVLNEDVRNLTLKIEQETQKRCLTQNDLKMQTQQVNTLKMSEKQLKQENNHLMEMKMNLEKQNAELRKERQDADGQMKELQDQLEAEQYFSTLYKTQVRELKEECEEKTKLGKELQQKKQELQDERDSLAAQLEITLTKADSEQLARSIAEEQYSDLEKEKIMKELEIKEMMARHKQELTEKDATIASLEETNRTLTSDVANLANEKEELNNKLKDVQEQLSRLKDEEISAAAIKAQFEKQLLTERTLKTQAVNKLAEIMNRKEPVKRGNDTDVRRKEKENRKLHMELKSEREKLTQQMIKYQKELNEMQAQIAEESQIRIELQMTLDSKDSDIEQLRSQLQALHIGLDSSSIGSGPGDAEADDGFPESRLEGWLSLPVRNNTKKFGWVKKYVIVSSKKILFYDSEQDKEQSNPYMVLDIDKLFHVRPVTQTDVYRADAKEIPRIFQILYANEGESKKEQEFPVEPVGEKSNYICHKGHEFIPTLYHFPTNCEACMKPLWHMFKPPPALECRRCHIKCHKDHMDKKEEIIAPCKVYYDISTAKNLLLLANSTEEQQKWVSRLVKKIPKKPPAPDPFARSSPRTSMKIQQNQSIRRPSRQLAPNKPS
# UniProt Q9HBY8: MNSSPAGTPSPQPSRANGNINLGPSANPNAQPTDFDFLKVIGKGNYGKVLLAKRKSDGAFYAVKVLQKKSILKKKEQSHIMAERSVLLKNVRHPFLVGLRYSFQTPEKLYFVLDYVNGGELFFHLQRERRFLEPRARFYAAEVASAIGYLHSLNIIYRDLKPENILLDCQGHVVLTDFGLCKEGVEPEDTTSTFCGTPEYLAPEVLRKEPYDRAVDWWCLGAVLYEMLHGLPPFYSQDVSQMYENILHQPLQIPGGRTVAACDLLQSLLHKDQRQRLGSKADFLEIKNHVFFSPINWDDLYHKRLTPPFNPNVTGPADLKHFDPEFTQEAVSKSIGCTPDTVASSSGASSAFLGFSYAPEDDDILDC
# UniProt Q96SB4, whole entry: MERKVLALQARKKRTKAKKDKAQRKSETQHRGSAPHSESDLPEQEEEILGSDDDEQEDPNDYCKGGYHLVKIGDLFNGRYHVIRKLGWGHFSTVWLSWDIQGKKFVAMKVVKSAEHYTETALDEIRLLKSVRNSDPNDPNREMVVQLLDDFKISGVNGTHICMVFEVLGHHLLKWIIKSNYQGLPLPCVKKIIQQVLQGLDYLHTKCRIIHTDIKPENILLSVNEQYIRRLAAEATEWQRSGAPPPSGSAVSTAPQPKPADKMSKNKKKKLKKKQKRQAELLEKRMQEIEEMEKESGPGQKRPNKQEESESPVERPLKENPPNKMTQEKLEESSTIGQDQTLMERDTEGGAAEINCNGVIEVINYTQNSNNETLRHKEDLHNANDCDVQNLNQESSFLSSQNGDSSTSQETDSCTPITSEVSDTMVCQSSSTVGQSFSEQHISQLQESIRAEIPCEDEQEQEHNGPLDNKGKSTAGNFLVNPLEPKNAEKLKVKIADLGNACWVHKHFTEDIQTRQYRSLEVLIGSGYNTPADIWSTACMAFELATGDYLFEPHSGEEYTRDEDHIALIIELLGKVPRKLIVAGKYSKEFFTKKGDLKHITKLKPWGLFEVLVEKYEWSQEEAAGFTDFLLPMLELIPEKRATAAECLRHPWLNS
# UniProt Q9BYT3: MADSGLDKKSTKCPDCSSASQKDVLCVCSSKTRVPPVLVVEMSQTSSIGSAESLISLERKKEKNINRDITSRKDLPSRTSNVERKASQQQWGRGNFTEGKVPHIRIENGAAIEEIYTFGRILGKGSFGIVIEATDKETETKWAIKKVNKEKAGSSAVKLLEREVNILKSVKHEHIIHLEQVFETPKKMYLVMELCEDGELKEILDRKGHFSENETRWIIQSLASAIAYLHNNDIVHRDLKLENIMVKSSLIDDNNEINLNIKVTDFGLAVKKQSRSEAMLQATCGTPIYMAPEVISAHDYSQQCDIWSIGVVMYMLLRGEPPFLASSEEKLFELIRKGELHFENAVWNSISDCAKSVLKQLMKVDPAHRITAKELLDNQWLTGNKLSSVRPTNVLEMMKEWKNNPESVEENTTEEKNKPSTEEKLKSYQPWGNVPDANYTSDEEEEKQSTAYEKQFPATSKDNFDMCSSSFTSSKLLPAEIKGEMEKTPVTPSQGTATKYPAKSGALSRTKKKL
# For part of these data: The strong results were mostly taken out for another list; the other results follow. The rule behind the calls is not given here. The entries are a selection whose mix differs from that of the whole data set.
# How the values were obtained:
# [1] = target: Tyrosine-protein kinase Fes/Fps (Homo sapiens) (UniProt P07332); conditions: at 1 µM
# [2] = target: G protein-coupled receptor kinase 6 (Homo sapiens) (UniProt P43250); conditions: at 1 µM
# [3] = target: Rhodopsin kinase GRK7 (Homo sapiens) (UniProt Q8WTQ7); conditions: at 1 µM
# [4] = target: Protein kinase C zeta type (Homo sapiens) (UniProt Q05513); conditions: at 10 µM
# [5] = target: Protein kinase C eta type (Homo sapiens) (UniProt P24723); conditions: at 1 µM
# [6] = target: T1, Protein kinase C iota type (Homo sapiens) (UniProt P41743); conditions: at 1 µM
# T1 sequence (whole entry): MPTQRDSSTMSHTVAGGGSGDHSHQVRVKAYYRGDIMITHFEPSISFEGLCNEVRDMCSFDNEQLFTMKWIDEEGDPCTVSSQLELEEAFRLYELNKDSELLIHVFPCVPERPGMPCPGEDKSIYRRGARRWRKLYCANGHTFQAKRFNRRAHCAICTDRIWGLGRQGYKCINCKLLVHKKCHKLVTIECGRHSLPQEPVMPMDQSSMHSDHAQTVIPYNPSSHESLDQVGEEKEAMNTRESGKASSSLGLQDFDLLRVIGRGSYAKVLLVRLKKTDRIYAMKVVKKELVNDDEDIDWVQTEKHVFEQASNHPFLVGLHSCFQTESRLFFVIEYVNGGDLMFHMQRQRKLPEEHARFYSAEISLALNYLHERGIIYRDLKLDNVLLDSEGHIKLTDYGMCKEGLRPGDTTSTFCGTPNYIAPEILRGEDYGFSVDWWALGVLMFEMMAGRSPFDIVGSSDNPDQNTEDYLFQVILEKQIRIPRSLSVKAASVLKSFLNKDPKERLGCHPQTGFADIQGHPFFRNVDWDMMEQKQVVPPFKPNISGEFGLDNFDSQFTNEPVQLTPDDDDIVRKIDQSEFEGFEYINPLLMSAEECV
# [7] = target: T2, Serine/threonine-protein kinase D1 (Homo sapiens) (UniProt Q15139); conditions: at 1 µM
# T2 sequence (whole entry): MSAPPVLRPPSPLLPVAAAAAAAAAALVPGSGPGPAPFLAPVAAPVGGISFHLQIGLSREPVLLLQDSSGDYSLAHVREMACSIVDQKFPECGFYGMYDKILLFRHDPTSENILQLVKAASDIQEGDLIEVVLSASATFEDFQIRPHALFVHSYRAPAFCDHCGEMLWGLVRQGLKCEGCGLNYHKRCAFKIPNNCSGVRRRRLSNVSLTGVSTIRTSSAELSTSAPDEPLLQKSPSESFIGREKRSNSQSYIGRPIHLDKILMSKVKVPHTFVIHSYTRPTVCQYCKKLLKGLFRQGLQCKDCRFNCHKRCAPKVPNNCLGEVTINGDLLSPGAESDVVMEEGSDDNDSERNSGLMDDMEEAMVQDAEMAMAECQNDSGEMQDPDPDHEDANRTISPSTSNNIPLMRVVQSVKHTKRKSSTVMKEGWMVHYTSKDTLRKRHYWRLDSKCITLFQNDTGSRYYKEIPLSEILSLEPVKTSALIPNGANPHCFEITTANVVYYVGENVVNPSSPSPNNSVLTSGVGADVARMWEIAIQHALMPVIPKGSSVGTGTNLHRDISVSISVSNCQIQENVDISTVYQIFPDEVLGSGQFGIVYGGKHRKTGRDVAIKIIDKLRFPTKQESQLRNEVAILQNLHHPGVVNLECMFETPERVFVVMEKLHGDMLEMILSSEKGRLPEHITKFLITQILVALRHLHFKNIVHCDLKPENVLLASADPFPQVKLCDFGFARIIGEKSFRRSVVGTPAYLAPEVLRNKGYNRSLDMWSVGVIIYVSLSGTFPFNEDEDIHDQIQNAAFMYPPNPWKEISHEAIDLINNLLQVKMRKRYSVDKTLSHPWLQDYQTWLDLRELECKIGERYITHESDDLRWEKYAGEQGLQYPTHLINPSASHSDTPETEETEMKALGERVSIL
# [8] = target: T3, Serine/threonine-protein kinase D2 (Homo sapiens) (UniProt Q9BZL6); conditions: at 1 µM
# T3 sequence (whole entry): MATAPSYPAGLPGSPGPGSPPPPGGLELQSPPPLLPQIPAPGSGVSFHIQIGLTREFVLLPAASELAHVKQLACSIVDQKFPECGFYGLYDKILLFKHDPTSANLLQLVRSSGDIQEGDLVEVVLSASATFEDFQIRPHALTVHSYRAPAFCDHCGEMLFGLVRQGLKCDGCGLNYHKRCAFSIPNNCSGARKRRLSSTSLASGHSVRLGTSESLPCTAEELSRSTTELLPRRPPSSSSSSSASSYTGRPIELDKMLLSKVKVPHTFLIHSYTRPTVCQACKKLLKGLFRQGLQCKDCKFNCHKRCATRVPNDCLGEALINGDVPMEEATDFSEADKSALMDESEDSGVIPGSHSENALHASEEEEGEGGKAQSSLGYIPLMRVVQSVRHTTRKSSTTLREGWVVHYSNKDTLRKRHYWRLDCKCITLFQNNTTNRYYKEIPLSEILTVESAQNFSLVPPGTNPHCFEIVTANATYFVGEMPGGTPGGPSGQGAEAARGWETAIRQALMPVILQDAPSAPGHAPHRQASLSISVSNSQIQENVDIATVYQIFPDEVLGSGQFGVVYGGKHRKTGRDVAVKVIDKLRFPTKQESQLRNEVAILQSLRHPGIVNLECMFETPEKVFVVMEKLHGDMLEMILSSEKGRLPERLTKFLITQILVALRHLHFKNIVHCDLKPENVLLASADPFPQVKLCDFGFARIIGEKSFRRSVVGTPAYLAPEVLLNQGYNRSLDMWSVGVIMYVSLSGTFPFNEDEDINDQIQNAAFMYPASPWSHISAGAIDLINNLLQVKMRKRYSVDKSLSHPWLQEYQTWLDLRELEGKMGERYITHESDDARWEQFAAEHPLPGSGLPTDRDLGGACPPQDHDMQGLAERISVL
# [9] = target: T3, Serine/threonine-protein kinase D2 (Homo sapiens); conditions: at 10 µM
# [10] = target: cGMP-dependent protein kinase 1 (Homo sapiens) (UniProt Q13976); conditions: at 10 µM
# [11] = target: T4, MAP kinase-activated protein kinase 5 (Homo sapiens) (UniProt Q8IW41); conditions: at 1 µM
# T4 sequence (whole entry): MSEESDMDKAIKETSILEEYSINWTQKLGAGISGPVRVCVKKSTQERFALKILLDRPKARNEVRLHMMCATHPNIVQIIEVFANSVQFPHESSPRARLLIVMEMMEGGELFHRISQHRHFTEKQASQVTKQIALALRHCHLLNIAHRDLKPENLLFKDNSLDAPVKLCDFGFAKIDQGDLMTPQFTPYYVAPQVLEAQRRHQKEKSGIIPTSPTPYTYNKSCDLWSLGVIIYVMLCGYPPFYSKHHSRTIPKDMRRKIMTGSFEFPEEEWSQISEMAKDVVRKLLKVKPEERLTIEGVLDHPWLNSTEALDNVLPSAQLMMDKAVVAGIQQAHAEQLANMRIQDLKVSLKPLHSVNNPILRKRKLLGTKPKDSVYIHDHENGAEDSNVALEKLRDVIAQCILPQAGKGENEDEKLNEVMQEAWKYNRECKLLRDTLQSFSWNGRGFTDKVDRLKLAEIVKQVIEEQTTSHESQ
# [12] = target: Tyrosine-protein kinase FRK (Homo sapiens) (UniProt P42685); conditions: at 1 µM
# [13] = target: Tyrosine-protein kinase FRK (Homo sapiens) (UniProt P42685); conditions: at 10 µM
# [14] = target: T5, Phosphorylase b kinase gamma catalytic chain, liver/testis isoform (Homo sapiens) (UniProt P15735); conditions: at 10 µM
# T5 sequence (whole entry): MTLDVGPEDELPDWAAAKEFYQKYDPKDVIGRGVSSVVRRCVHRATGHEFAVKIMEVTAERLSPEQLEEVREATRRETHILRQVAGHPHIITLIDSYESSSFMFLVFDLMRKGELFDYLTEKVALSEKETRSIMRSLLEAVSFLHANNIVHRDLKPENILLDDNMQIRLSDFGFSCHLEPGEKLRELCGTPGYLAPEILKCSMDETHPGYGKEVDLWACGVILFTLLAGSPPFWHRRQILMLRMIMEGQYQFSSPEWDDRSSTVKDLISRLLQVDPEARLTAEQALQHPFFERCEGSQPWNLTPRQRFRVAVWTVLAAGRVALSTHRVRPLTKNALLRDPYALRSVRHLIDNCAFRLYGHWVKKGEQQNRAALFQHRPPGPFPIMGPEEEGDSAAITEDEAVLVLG
# [15] = target: Serine/threonine-protein kinase PLK3 (Homo sapiens) (UniProt Q9H4B4); conditions: at 10 µM
# [16] = target: cAMP-dependent protein kinase catalytic subunit PRKX (Homo sapiens) (UniProt P51817); conditions: at 1 µM
# [17] = target: cAMP-dependent protein kinase catalytic subunit PRKX (Homo sapiens) (UniProt P51817); conditions: at 10 µM
# [18] = target: Rho-associated protein kinase 1 (Homo sapiens) (UniProt Q13464); conditions: at 10 µM
# [19] = target: Rho-associated protein kinase 2 (Homo sapiens) (UniProt O75116); conditions: at 1 µM
# [20] = target: Proto-oncogene tyrosine-protein kinase ROS (Homo sapiens) (UniProt P08922); conditions: at 1 µM
# [21] = target: Proto-oncogene tyrosine-protein kinase ROS (Homo sapiens) (UniProt P08922); conditions: at 10 µM
# [22] = target: T6, Tyrosine-protein kinase receptor TYRO3 (Homo sapiens) (UniProt Q06418); conditions: at 1 µM
# T6 sequence (whole entry): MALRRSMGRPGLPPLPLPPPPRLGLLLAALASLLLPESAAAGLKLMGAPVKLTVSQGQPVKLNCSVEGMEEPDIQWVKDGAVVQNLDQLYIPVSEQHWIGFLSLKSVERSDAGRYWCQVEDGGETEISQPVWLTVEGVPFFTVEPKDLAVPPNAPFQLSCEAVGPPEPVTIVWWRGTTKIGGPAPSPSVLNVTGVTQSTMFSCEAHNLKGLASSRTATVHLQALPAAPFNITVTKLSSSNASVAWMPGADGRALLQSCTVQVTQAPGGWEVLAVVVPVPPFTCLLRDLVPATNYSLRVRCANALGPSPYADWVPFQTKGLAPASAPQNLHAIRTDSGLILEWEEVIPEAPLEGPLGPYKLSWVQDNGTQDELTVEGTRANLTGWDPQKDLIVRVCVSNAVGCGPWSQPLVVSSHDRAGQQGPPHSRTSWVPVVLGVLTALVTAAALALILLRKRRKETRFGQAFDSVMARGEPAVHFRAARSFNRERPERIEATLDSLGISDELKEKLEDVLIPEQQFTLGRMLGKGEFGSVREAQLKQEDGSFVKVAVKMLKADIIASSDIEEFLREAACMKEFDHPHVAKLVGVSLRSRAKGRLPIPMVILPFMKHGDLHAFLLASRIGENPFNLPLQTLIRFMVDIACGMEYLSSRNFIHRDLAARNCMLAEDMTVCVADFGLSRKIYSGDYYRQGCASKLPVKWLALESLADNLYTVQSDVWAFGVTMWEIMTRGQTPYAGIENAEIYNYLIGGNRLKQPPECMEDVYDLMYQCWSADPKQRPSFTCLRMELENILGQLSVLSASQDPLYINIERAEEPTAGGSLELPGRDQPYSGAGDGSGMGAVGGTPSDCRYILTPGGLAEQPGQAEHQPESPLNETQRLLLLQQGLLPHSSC
# [23] = target: Mitogen-activated protein kinase 11 (Homo sapiens) (UniProt Q15759); conditions: at 10 µM
# [24] = target: T7, Serine/threonine-protein kinase Sgk1 (Homo sapiens) (UniProt O00141); conditions: at 1 µM
# T7 sequence (whole entry): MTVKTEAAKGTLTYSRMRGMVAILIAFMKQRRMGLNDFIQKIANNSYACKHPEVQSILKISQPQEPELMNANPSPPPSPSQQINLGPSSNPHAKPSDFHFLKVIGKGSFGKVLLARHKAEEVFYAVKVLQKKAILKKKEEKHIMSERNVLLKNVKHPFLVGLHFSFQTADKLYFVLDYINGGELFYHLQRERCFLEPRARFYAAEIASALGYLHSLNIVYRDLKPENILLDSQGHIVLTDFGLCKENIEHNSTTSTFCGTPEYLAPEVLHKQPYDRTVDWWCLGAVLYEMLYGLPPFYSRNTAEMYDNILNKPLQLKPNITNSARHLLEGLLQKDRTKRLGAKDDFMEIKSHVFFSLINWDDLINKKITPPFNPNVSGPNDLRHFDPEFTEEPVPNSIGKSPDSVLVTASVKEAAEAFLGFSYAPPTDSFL
# [25] = target: T7, Serine/threonine-protein kinase Sgk1 (Homo sapiens); conditions: at 10 µM
# [26] = target: Serine/threonine-protein kinase Sgk2 (Homo sapiens) (UniProt Q9HBY8); conditions: at 1 µM
# [27] = target: Serine/threonine-protein kinase Sgk3 (Homo sapiens) (UniProt Q96BR1); conditions: at 10 µM
# [28] = target: SRSF protein kinase 1 (Homo sapiens) (UniProt Q96SB4); conditions: at 1 µM
# [29] = target: SRSF protein kinase 2 (Homo sapiens) (UniProt P78362); conditions: at 1 µM
# [30] = target: Serine/threonine-protein kinase 33 (Homo sapiens) (UniProt Q9BYT3); conditions: at 1 µM
smiles,measurement,setting,value
O=C1NC(=O)C(c2cn(CCCO)c3ncccc23)=C1c1cnccn1,residual activity,[1],102%
same,residual activity,[2],105%
same,residual activity,[3],106%
same,residual activity,[4],102%
same,residual activity,[5],111%
same,residual activity,[6],inactive: 104%
same,residual activity,[7],102%
same,residual activity,[8],98%
same,residual activity,[9],104%
same,residual activity,[10],122%
same,residual activity,[11],105%
same,residual activity,[12],97%
same,residual activity,[13],105%
same,residual activity,[14],112%
same,residual activity,[15],99%
same,residual activity,[16],107%
same,residual activity,[17],101%
same,residual activity,[18],108%
same,residual activity,[19],104%
same,residual activity,[20],101%
same,residual activity,[21],98%
same,residual activity,[22],99%
same,residual activity,[23],104%
same,residual activity,[24],113%
same,residual activity,[25],106%
same,residual activity,[26],113%
same,residual activity,[27],103%
same,residual activity,[28],107%
same,residual activity,[29],101%
same,residual activity,[30],101%
